Test system: HAP1 MTAP-deleted cell line
Assay: SDMA in-cell western assay, HAP1 MTAP-deleted
Details: IC50 ratio between HAP1 MTAP-intact and HAP1 MTAP-deleted cell line

Compound	Hap1 MTAP intact/deleted ratio (SDMA in-cell western assay)	Hap1 MTAP intact/deleted ratio (SDMA in-cell western)
CC(C)[C@@H]1CC[C@@H](C)CN1C(=O)C(=O)Nc1cnc(N)c2cn[nH]c12 (racemic) [Compound 244, N-(4-amino-1H-pyrazolo[4,3-c]pyridin-7-yl)-2-(rac-(2S,5R)-2-isopropyl-5-methylpiperidin-1-yl)-2-oxoacetamide]	A (“A” indicates an IC50 ratio greater than or equal to 30 fold)	–
[2H]c1c([2H])c([2H])c([C@H]2CC[C@H](C)CN2C(=O)C(=O)Nc2cnc(N)c3cn[nH]c23)c([2H])c1[2H] (single isomer, unassigned) [Compound 268]	B (“B” indicates an IC50 ratio greater than or equal to 15 fold but lower than 30 fold)	–
[2H]c1c([2H])c([2H])c([C@@H]2CC[C@H](C)CN2C(=O)C(=O)Nc2cnc(N)c3cn[nH]c23)c([2H])c1[2H] (single isomer, unassigned) [Compound 286]	B (“B” indicates an IC50 ratio greater than or equal to 15 fold but lower than 30 fold)	–
C[C@H]1CC[C@H](c2ccc3scnc3c2)N(C(=O)C(=O)Nc2cnc(N)c3cn[nH]c23)C1 [Compound 17, N-(4-amino-1H-pyrazolo[4,3-c]pyridin-7-yl)-2-[(2R,5S)-2-(1,3-benzothiazol-5-yl)-5-methyl-1-piperidyl]-2-oxo-acetamide]	–	B (“B” indicates an IC50 ratio greater than or equal to 15 fold but lower than 30 fold)
C[C@H]1CC[C@H](c2ccc3sc(C4CCN(C)CC4)nc3c2)N(C(=O)C(=O)Nc2cnc(N)c3cn[nH]c23)C1 [Compound 105, N-(4-amino-1H-pyrazolo[4,3-c]pyridin-7-yl)-2-oxo-2-[(2R,5S)-5-methyl-2-[2-(1-methyl-4-piperidyl)-1,3-benzothiazol-5-yl]-1-piperidyl]acetamide]	–	C (“C” indicates an IC50 ratio of less than 15 fold)
C[C@H]1CC[C@H](c2ccccc2)N(C(=O)C(=O)Nc2cnc(N)c3cn[nH]c23)C1 [Compound 126, N-(4-amino-1H-pyrazolo[4,3-c]pyridin-7-yl)-2-oxo-2-[(2R,5S)-5-methyl-2-phenyl-1-piperidyl]acetamide]	–	B (“B” indicates an IC50 ratio greater than or equal to 15 fold but lower than 30 fold)
C[C@H]1CC[C@H](C2CC2)N(C(=O)C(=O)Nc2cnc(N)c3cn[nH]c23)C1 [Compound 277, N-(4-Amino-1H-pyrazolo[4,3-c]pyridin-7-yl)-2-oxo-2-[(2R,5S)-2-cyclopropyl-5-methyl-1-piperidyl]acetamide]	A (“A” indicates an IC50 ratio greater than or equal to 30 fold)	–

Source: patent US20250163048A1 (Tango Therapeutics, Inc., priority 2022, published 2025)
